PMC11056994, “Potentiating Activity of GmhA Inhibitors on Gram-Negative Bacteria” (Journal of Medicinal Chemistry, 2024)

Protein sequences, listed by entry. Tags and fused reporters are not part of them.
UniProt P63224, whole entry: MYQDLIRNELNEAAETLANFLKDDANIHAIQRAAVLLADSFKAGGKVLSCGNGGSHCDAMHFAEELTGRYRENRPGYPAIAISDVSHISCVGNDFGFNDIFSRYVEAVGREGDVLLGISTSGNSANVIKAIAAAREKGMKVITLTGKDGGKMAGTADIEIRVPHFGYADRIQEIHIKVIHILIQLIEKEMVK

Molecular target: E. coli GmhA (Escherichia coli, UniProt P63224)
Format: biochemical
Details: luminescence assay, mean ± SD of at least 3 independent experiments
Description: The ability of these analogues to inhibit LPS biosynthesis in wild-type E. coli was also visualized on silver-stained LPS SDS-PAGE electrophoretic images (Figure 2) using strain C7 (018:K1:H7), which is a newborn meningitis E. coli strain containing inner- and outer-core oligosaccharides as well as the O-antigen. Inhibition was monitored by formation of the heptose-deficient Re LPS, which only comprises lipid A and Kdo, and the EC50 data are reported in Table 1.
The assay buffer “AB” contained 50 mM HEPES, pH 7.5, 1 mM MnCl2, 25 mM KCl, 0.012% Triton-X100, 1 mM dithiothreitol (DTT), and 0.1 μM myelin basic protein (MBP, Sigma, ref M1891). The following components were added in a white polystyrene Costar plate up to a final volume of 30 μL: 10 μL of inhibitor dissolved in DMSO/water 50/50 and 20 μL of GmhA of E. coli in AB. After 30 min of preincubation at room temperature, 30 μL of the substrate mixture in AB were added in each well to give a final volume of 60 μL. […] Luminescence intensity was immediately measured on a Luminoskan instrument (Thermofisher) and converted into inhibition percentages. […]

Q: Which IC50 does the source give for `O=CN(O)C[C@H](O)[C@H](O)[C@H](O)CC(F)(F)P(=O)(O)O` [Compound 84] here?
A: Its IC50 is 220 ± 30 nM.
